Assay results published in patent US11813270B2, “Nitric oxide-releasing antibacterial compounds, formulations, and methods pertaining thereto” (KNOW BIO, LLC, priority 2020, dated 2023).

What was measured:
[1] = Maximum tolerated dose (MTD) study; details: SCID mice, intratracheal, once daily for 3 consecutive days
[2] = Nitric oxide release measured by chemiluminescence-based nitric oxide analyzer (NOA)
[3] = Degradation and NO/HNO release under (simulated) physiological conditions; details: for release of NO or HNO: physiological conditions (temperatures and pHs)

Compound	clinical condition of mice ([1]; 1-100 mg/kg, throughout the study)	adverse effects ([1]; up to maximum dose group 6 (100 mg/Kg))	NO-loading ([2]; combined composition of β-cyclodextrin and MTDD) [µmol/mg]	NO released per 1 mole (described degradation pathway) ([2]; described degradation pathway) [mol]	moles of NO released by one mole of compound ([2]; experimental results)	NO released (NO release profile) ([2]; pH 7.4, chemiluminescence) [μmol NO/mg]	NO radicals generated by 1 mole of compound ([2]; physiological conditions (37° C., pH 7.4))	theoretical NO load / theoretical yield ([2]; single diazeniumdiolate group, 2 moles NO per mole) [μmol NO/mg]	NO Load ([2]; unit not given)	release of NO or HNO [3]	release of NO or HNO ([3]; listed as Methane bis-diazeniumdiolate)	degradation ([3]; simulated physiological conditions)
methane trisdiazeniumdiolate sodium salt	bright, alert, and responsive	No adverse effects were observed	6.7	2	approximately 2 moles	6.7	two moles of NO radicals	7.6	6.7	–	–	–
[O-]/[N+](C/[N+]([O-])=N\O)=N\O	–	–	–	–	–	–	–	–	–	does not release NO or HNO	does not release NO or NHO	does not degrade to any significant degree
